Measurements as given in PubChem BioAssay AID720704 (The Scripps Research Institute Molecular Screening Center, 2013).
This is a selection; strong and weak results do not stand in their true shares. Activity calls are given as the source filed them. No stated cut-off is given here; in the data, active means inhibition above about 11%; inactive means the rest.

Chains of the proteins cited; added tags and fusions are not shown.
UniProt Q01970, whole entry: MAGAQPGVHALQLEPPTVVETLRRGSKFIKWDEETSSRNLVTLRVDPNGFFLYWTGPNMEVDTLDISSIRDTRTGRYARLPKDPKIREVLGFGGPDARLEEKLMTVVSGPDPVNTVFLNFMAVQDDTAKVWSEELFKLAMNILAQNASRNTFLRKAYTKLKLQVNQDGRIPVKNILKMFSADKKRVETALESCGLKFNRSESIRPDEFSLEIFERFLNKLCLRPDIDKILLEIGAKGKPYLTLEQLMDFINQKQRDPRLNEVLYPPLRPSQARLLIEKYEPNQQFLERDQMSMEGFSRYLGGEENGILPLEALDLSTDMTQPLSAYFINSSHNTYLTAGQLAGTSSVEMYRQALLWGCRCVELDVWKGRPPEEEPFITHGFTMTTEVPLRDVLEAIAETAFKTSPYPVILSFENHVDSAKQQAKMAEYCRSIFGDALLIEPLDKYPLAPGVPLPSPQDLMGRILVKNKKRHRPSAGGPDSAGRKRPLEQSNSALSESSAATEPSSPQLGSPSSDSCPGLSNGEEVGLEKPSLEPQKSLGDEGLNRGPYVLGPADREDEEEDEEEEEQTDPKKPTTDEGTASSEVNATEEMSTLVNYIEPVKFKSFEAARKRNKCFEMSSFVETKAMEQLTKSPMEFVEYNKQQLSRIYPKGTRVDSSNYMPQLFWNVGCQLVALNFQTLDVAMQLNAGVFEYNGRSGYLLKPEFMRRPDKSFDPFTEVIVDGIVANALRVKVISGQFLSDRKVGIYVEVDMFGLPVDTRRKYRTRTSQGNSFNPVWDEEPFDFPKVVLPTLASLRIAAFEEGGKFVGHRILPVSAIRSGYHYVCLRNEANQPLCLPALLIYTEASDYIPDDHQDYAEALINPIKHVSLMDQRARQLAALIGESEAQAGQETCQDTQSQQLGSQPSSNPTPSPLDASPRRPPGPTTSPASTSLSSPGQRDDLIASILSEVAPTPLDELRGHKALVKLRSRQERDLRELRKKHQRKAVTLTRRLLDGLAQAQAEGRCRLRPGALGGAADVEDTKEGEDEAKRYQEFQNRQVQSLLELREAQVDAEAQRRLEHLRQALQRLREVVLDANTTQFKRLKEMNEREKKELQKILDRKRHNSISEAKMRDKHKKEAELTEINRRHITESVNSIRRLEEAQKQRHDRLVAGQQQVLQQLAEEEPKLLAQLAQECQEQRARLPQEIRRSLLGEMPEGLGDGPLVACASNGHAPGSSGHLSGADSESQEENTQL

molecular target: 1-phosphatidylinositol 4,5-bisphosphate phosphodiesterase beta-3 (Homo sapiens) (UniProt Q01970); experiment: phospholipase C beta3 enzyme inhibition – biochemical, fluorescence, primary screen (AID 720704); conditions: Purified PLC-beta3, fluorogenic substrate, at 12.2 µM, stronger effect = higher value;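 further: 0% = median of compound wells on plate and 100% = full blocker control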

Compound | inhibition
O=C(NCC1(N2CCCCC2)CCCCC1)c1cccc(C(F)(F)F)c1 | inactive: -5.02%
CCOC(=O)N1CCC(Nc2ccc(F)cc2)CC1 | inactive: 1.92%
COc1ccc(NC2CCN(CCc3ccccc3)CC2)c(OC)c1 | inactive: -2.53%
O=C(NCC1(N2CCCCC2)CCCCC1)c1ccc(F)cc1 | inactive: -4.53%
CCCCOc1ccc(C(=O)NCC2(N3CCOCC3)CCCCC2)cc1 | inactive: 2.2%
CCCCn1nnnc1C(c1cc2ccccc2o1)N1CCC(n2c(=O)[nH]c3ccccc32)CC1 (centres undefined) | inactive: 3.5%
O=P1(N(CCCl)CCCl)SCCCS1 | inactive: 1.92%
CCOc1ccc(C)cc1CN(CCCl)CCCl | inactive: -2.85%
O=C1CCN(Cc2ccccc2)CC1 | inactive: -1.22%
CC(C)(C)n1nnnc1C(c1ccccc1)N1CCC(n2c(=O)[nH]c3ccccc32)CC1 (centres undefined) | inactive: 2.07%
O=c1[nH]c2ccccc2n1C1CCN(C(c2cccc3ccccc23)c2nnnn2C2CCCC2)CC1 (centres undefined) | inactive: 3.19%
COc1cc(C(=O)NCC2(N(C)C)CCCCC2)ccc1OC(F)F | inactive: -7.39%
CCOC(=O)N1CCC(Nc2cccc(C)c2)CC1 | inactive: -6.29%
O=c1[nH]c2ccccc2n1C1CCN(C(c2ccccc2)c2nnnn2C2CCCCC2)CC1 (centres undefined) | inactive: 0.33%
Cc1cccc(NC2(C#N)CCN(Cc3ccccc3)CC2)c1 | active: 14.9%
CSc1ccccc1C(=O)NCC1(N2CCCCC2)CCCCC1 | inactive: -7.19%
CCCCn1nnnc1C(c1cccs1)N1CCC(n2c(=O)[nH]c3ccccc32)CC1 (centres undefined) | inactive: -0.69%
O=C(NCC1(N2CCCCC2)CCCCC1)c1cccs1 | inactive: -1.3%
CCCCn1nnnc1C(CC)N1CCC(n2c(=O)[nH]c3ccccc32)CC1 (centres undefined) | inactive: 1.07%
O=C(NCC1(N2CCCCC2)CCCCC1)c1ccc(=O)[nH]c1 | inactive: -8.1%
CCC(c1nnnn1C1CCCC1)N1CCC(n2c(=O)[nH]c3ccccc32)CC1 (centres undefined) | inactive: 1.95%

Compound | inhibition
CC(C)(C)OC(=O)N1CCC(N(C(=O)c2ccccc2)c2ccc(F)cc2)CC1 | inactive: 1.56%
COc1ccc(C(=O)NCC2(N3CCCCC3)CCCCC2)c(OC)c1OC | inactive: -7.1%
COc1ccc(C(=O)NCC2(N3CCCCC3)CCCCC2)cc1 | inactive: -4.18%
CCCCn1nnnc1C(c1ccc(OC)cc1)N1CCC(n2c(=O)[nH]c3ccccc32)CC1 (centres undefined) | inactive: 1.78%
CCOC(=O)N1CCC(Nc2ccc(OC)cc2)CC1 | inactive: 0.45%
COc1ccc(Cl)cc1C(=O)NCC1(N2CCOCC2)CCCCC1 | inactive: 2.47%
O=c1[nH]c2ccccc2n1C1CCN(C(c2cc3ccccc3o2)c2nnnn2C2CCCCC2)CC1 (centres undefined) | inactive: -0.59%
O=C(OC1CN2CCC1CC2)C1c2ccccc2Oc2ccccc21 (centres undefined) | inactive: 0.9%
O=C(NCC1(N2CCCCC2)CCCCC1)c1ccc(Cl)s1 | inactive: -7.71%
N#CC1(Nc2ccccc2)CCN(Cc2ccccc2)CC1 | inactive: 0.21%
O=C(NCC1(N2CCOCC2)CCCCC1)c1cc2ccccc2o1 | inactive: -2.33%
Cc1cc(C)cc(N(C(=O)c2ccccc2)C2CCN(C(=O)OC(C)(C)C)CC2)c1 | inactive: -3%
O=c1[nH]c2ccccc2n1C1CCN(C(c2ccccc2OC(F)(F)F)c2nnnn2C2CCCCC2)CC1 (centres undefined) | inactive: -0.16%
O=C(NCC1(N2CCCCC2)CCCCC1)c1ccc(Cl)nc1 | inactive: -19.4%
CCCOc1ccc(C(=O)NCC2(N(C)C)CCCCC2)cc1 | inactive: -5.65%
O=c1[nH]c2ccccc2n1C1CCN(C(c2cc3ccccc3o2)c2nnnn2C2CCCC2)CC1 (centres undefined) | inactive: -4.41%
NN(c1ccccc1)C1CCN(CCc2ccccc2)CC1 | inactive: 0.81%
O=C(O)C1(Nc2ccccc2)CCN(Cc2ccccc2)CC1 | inactive: -8.43%
CC(C)(C)OC(=O)N1CCC(Nc2ccccc2)CC1 | inactive: -6.7%
CN1CCC(Nc2ccc(F)c(Cl)c2)CC1 | inactive: -6.64%
CCOc1ncccc1C(=O)NCC1(N2CCOCC2)CCCCC1 | inactive: -2%

Compound | inhibition
CN1CCC(Nc2ccc(Cl)cc2)CC1 | inactive: -6.35%
CCC(CO)(C(=O)OC1CN2CCC1CC2)c1ccccc1 (centres undefined) | inactive: 5.83%
COc1cccc(C(=O)N(c2cc(C)cc(C)c2)C2CCN(C(=O)OC(C)(C)C)CC2)c1 | inactive: -3.74%
COc1cc(OC)cc(C(=O)NCC2(N3CCOCC3)CCCCC2)c1 | inactive: 0.23%
COc1cccc(C(c2nnnn2C2CCCC2)N2CCC(n3c(=O)[nH]c4ccccc43)CC2)c1OC (centres undefined) | inactive: 2.45%
Cc1ccc(NC2(C#N)CCN(Cc3ccccc3)CC2)cc1 | inactive: 3.74%
Fc1ccccc1NC1CCN(Cc2ccccc2)CC1 | inactive: -8.51%
Cc1ccc(C(=O)NCC2(N3CCCCC3)CCCCC2)o1 | inactive: -6.5%
O=c1[nH]c2ccccc2n1C1CCN(C(c2ccnc3ccccc23)c2nnnn2C2CCCCC2)CC1 (centres undefined) | inactive: -1.12%
COc1cc(OC)cc(C(=O)NCC2(N3CCCCC3)CCCCC2)c1 | inactive: -3.92%
CCC(c1nnnn1C1CCCCC1)N1CCC(n2c(=O)[nH]c3ccccc32)CC1 (centres undefined) | inactive: 3.78%
CC(=O)N(c1ccccc1)C1CCNCC1 | inactive: -1.83%
COc1cccc(C(c2nnnn2C2CCCCC2)N2CCC(n3c(=O)[nH]c4ccccc43)CC2)c1OC (centres undefined) | inactive: 1.47%
Cn1c(=O)[nH]cc(N(CCCl)CCCl)c1=O | inactive: 3.24%
CN(C)c1ccc(C(=O)NCC2(N3CCCCC3)CCCCC2)cc1 | inactive: 0.63%
O=C(NCC1(N2CCCCC2)CCCCC1)c1ccco1 | inactive: -1.14%
CC(C)(C)n1nnnc1C(c1ccnc2ccccc12)N1CCC(n2c(=O)[nH]c3ccccc32)CC1 (centres undefined) | inactive: 4.67%
CCN1CCC(Nc2cccc(F)c2)CC1 | inactive: 5.64%
COc1ccc(C(c2nnnn2C2CCCCC2)N2CCC(n3c(=O)[nH]c4ccccc43)CC2)cc1 (centres undefined) | inactive: 1.45%
Cc1ccccc1NC1(C#N)CCN(Cc2ccccc2)CC1 | inactive: 1.24%
CC(C)(C)OC(=O)N1CCC(N(C(=O)c2ccccc2)c2ccc(Cl)cc2)CC1 | inactive: -3.3%

Compound | inhibition
N#Cc1ccc(C(=O)NCC2(N3CCCCC3)CCCCC2)cc1 | inactive: -5.88%
CC(C)(C)n1nnnc1C(c1cccc2ccccc12)N1CCC(n2c(=O)[nH]c3ccccc32)CC1 (centres undefined) | inactive: -3.54%
Cc1cc(N(CCCl)CCCl)ccc1C=O | inactive: -1.83%
O=c1[nH]c2ccccc2n1C1CCN(C(c2ccccc2)c2nnnn2C2CCCC2)CC1 (centres undefined) | inactive: 0.78%
CCCN1CCC(Nc2cc(OC)cc(OC)c2)CC1 | inactive: -8.8%
c1ccc(CN2CCC(Nc3ccccc3)CC2)cc1 | inactive: -0.67%
C/C(N)=N\P(=O)(Oc1ccccc1)Oc1ccccc1 | inactive: 5.8%
CN(C)C1(CNC(=O)c2cccc(C#N)c2)CCCCC1 | inactive: -3.07%
O=c1[nH]c2ccccc2n1C1CCN(C(c2ccnc3ccccc23)c2nnnn2C2CCCC2)CC1 (centres undefined) | inactive: 0.07%
COc1ccc(C(=O)NCC2(N3CCOCC3)CCCCC2)cc1OC | inactive: -0.55%
NC(=O)C1(Nc2ccccc2)CCN(Cc2ccccc2)CC1 | inactive: 4.44%
O=c1[nH]c2ccccc2n1C1CCN(C(c2cccs2)c2nnnn2C2CCCCC2)CC1 (centres undefined) | inactive: -0.08%
O=C(NCC1(N2CCOCC2)CCCCC1)c1cc(Br)ccc1Cl | inactive: -4.57%
COc1cc(C(=O)NCC2(N3CCOCC3)CCCCC2)cc(OC)c1C | inactive: -6.64%
CCCCn1nnnc1C(c1ccccc1)N1CCC(n2c(=O)[nH]c3ccccc32)CC1 (centres undefined) | inactive: 3.27%
CCCCn1nnnc1C(c1cccc(OC)c1OC)N1CCC(n2c(=O)[nH]c3ccccc32)CC1 (centres undefined) | inactive: 5.77%
O=c1[nH]c2ccccc2n1C1CCN(C(c2cccs2)c2nnnn2C2CCCC2)CC1 (centres undefined) | inactive: 7.13%
O=C(OC1CN2CCC1CC2)C1c2ccccc2C=Cc2ccccc21 (centres undefined) | inactive: -1.94%
N/C(=N\O)c1c(N)no[n+]1[O-] | inactive: 0.94%
COc1cccc(C(c2nnnn2C(C)(C)C)N2CCC(n3c(=O)[nH]c4ccccc43)CC2)c1OC (centres undefined) | inactive: 0.44%
CCOC(=O)N1CCC(Nc2ccc(C)cc2)CC1 | inactive: -6.59%
